Usually IC50 stands for the concentration that inhibits the measured activity by half. The low end stands for greater potency, the high end for weaker potency.

Sequences of proteins named here, by UniProt entry; tags and fusion partners are left off. A change or cut given only in a name is not applied to a line headed by its entry.
UniProt Q92905: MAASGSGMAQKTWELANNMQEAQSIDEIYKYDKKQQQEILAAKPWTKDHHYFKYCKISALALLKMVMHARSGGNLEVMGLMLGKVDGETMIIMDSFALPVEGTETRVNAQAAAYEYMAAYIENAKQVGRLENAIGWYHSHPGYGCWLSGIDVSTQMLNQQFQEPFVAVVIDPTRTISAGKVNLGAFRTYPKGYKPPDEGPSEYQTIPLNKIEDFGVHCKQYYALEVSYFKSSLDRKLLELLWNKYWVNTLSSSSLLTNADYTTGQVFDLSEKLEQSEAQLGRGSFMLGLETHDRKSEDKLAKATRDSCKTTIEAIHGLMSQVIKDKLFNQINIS
UniProt O00487, whole entry, looked up: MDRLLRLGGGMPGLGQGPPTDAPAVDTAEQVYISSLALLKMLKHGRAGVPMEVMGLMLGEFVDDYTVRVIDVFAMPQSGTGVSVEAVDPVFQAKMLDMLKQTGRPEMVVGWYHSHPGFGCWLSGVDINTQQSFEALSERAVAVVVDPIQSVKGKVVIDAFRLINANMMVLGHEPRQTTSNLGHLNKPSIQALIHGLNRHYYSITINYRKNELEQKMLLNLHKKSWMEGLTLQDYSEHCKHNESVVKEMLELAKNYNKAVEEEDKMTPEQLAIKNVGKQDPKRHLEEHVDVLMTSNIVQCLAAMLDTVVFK
UniProt O95630, whole entry: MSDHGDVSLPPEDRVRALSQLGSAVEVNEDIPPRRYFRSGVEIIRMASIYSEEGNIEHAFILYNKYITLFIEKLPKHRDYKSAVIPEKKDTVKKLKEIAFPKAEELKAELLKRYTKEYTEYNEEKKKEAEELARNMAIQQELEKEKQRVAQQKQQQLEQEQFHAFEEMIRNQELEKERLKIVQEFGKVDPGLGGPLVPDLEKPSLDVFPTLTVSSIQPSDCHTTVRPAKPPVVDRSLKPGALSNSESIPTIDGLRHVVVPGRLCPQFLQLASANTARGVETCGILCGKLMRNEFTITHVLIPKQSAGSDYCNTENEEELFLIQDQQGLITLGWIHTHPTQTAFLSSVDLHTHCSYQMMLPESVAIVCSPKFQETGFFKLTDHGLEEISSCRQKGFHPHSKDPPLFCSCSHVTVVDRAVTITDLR

What all share (type): biochemical
In assay [1] the target is Csn5 (Homo sapiens (Human), UniProt Q92905). As to the kind of experiment: Csn5 activity assay (fluorescence polarization, SCF^skp2-Nedd8OG, COP9 Signalosome Complex). To be noted: Table 2. The source says: 30, 2013, and Arnst et al., 2013, “High-throughput compatible fluorescence resonance energy transfer-based assay to identify small molecule inhibitors of AMSH deubiquitinase activity,” Anal Biochem, 440; 71-77, the entire contents of both of which are herein incorporated by reference.
Csn5 Activity Assay. […] In brief, a fluorescent substrate termed SCF^skp2-Nedd8OG was produced to measure CSN5 activity in vitro. This assay measures the decrease in fluorescence polarization due to the decrease in apparent molecular weight of Oregon Green (OG) fluorophore (from the ˜175 kDa substrate to ˜9 kDa Nedd8OG) as a result of Csn5-mediated cleavage of the isopeptide bond that links Nedd8OG to SCF^Skp2. The assay was performed in a low-volume 384 well solid black plate comprising equal volumes of compound, substrate (SCF^skp2-Need8OG) and enzyme (purified COP9 Signalosome Complex, CSN). Fluorescence polarization was recorded using the same setting as for the Rpn11 activity assay. IC50 was calculated as described in Example 75.

Assay [2] concerns the target Rpn11 (Homo sapiens (Human), UniProt O00487). The assay is described as follows: Rpn11 activity assay (fluorescence polarization, Ub4-pepOG cleavage by 26S proteasome). To be noted: Table 2; 1 mM DTT in assay reduces disulfides to monomeric active species. An excerpt:
Candidate compounds according to embodiments of the present invention were synthesized as described herein. […] In brief, this Rpn11 bioassay employs a fluorescent polarization readout based on the ability of the 26S proteasome to cleave the protein substrate including four tandem ubiquitin proteins fused to a peptide having a unique cysteine labeled with a fluorophore. Cleavage of this substrate by Rpn11 at the junction between the fourth ubiquitin and the peptide, releases the low molecular weight fluorescent peptide. Accordingly, inhibition of fluorescence correlates with inhibition of Rpn11. Inhibition is reported as the half maximal inhibitory concentration (IC50) for the candidate compound.
Rpn11 Activity Assay. […] In brief, in order to measure the Rpn11 activity, a synthetic peptide substrate, termed Ub4-pepOG, was engineered. […] Fluorescence polarization assay was performed in a low-volume 384 well solid black plate where the components are added in the follow sequence: 1) 5 μl compound in 3% DMSO or 3% DMSO control 2) 5 μl 26S proteasome (Enzo Life Sciences Inc, NY). […] Fluorescence polarization is measured using a PHERAstar (BMG labtech, Ortenberg, Germany) plate reader with excitation of 480 nm and emission of 520 nm filter set. […]
In general terms: Polarisation of emitted light reports the rotation of a fluorescent probe.

The target of assay [3] is AMSH (Homo sapiens (Human), UniProt O95630). As to the kind of experiment: AMSH activity assay (DiUb^K63TAMRA cleavage, fluorescence). Conditions: Table 2. The source says: AMSH Activity Assay. AMSH is known to selectively cleave ubiquitin chains in which the ubiquitins are joined via K63 of the proximal ubiquitin linked by an isopeptide bond to the carboxy terminus of the distal ubiquitin. […] In brief, DiUb^K63TAMRA was labeled with quench pairs TAMRA/QXL.

On to `O=C(NCc1ccc(N2CCOCC2)cc1)c1cnc2c(SSc3cccc4cc(C(=O)NCc5ccc(N6CCOCC6)cc5)cnc34)cccc2c1` [Compound 21, 8,8′-Disulfanediylbis(N-(4-morpholinobenzyl)quinoline-3-carboxamide)], for which the IC50 in assay [1] is 0.35 µM.
For the compound `CNC(=O)c1cnc2c(SSc3cccc4cc(C(=O)NC)cnc34)cccc2c1` [Compound 2, 8,8′-Disulfanediylbis(N-methylquinoline-3-carboxamide)], the IC50 in assay [2] is 1.6 µM.
In turn, `O=C(NCCc1nccs1)c1cnc2c(SSc3cccc4cc(C(=O)NCCc5nccs5)cnc34)cccc2c1` [Compound 12, 8,8′-Disulfanediylbis(N-(2-(thiazol-2-yl)ethyl)quinoline-3-carboxamide)] showed an IC50 in assay [3] of 4.5 µM.

The values are drawn from patent US10005735B2, “Inhibitors of RPN11” (California Institute of Technology, priority 2015, dated 2018).
